Compound activity: PubChem BioAssay, several laboratories
Shown are actives, neighbours in structure and some others; about 4.2% of the full set was active somewhere.
NALP1 yeast inh: NALP1 inhibition | S. cerevisiae NALP1/ASC/caspase-1 growth, X-gal OD620, 72 h | AID 2071 | inhibition, % at 10 µM | actives 0.61% (n = 280,000); in the data active = inhibition mostly above about 24%, no sharp cut-off; inactive = mostly below about 32%
HDAC3 inhib: blocks human histone deacetylase 3 | O15379 | recombinant HDAC3, fluorogenic peptide/trypsin coupled, fluorescence | inhibition, % at 8.3 µM | actives 0.15% (n = 320,000); in the data active = inhibition above about 26%, passing the limit was not always enough
MC4R antag cAMP: blocks human MC4R cAMP signaling | actives 0.48% (n = 360,000) | inhibition, % at 6.5 µM | MC4R-expressing cells, MTII-stimulated cAMP, LANCE TR-FRET | P32245;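 active = inhibition above its plate's cutoff, the mean of tested wells on that plate plus 3 SD, cut at about 29% in these data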;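 also: 0% = Melanotan II alone and 100% = Melanotan II plus saturating MCL0020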
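system = U2OS cells with stable human MC4R expression | also added = Melanotan II challenge after compound preincubation | dosing = one concentration, 6.5 µM nominal | incubation = compound 30 min, challenge 1 h, detection 1 h | measured by = TR-FRET with Eu-cAMP and labeled anti-cAMP, 671 nm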
MC4R barr agon: activates human MC4R beta-arrestin recruitment; P32245; U2OS MC4R beta-arrestin complementation, luminescence; percent of melanotan II response, DMSO zero; activation, % at 8.9 µM; actives 0.98% (n = 360,000); AID 540308;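 active = activation above a per-plate cutoff, the mean activation of sample wells on that plate plus 3 SD, cut at about 8% in these data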
UUG fidelity: alters start codon recognition fidelity in yeast. S. cerevisiae UUG-firefly luciferase reporter, luminescence/redox ratio. 350,000 tested, 0.13% active. activity score, % at 18.7 µM. AID 602363;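 active means replicate mean at a twofold rise or more, about +100% in these data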;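 further: firefly luciferase made from a UUG start codon reports start codon fidelity; reporter light over untreated wells divided by growth signal over untreated wells; some hits fall short of that in this replicate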
ALR inh: inhibitors of human ALR sulfhydryl oxidase, primary screen, biochemical, H2O2 detection, HRP-luminol luminescence, single point | FAD-linked sulfhydryl oxidase ALR (Homo sapiens), P55789 | purified ALR, DTT oxidation | inhibition, % (concentration not given with the values) | actives 3.8% (n = 290,000) | AID 485317, 2010;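 active = mean and each replicate at 75% or more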;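 also: stock transfer was 7.5 nL into about 7.5 µL; 0% = neutral wells and 100% = wells with inactivated enzyme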
MC4R barr ag: human MC4R beta-arrestin agonism confirmation | U2OS MC4R beta-arrestin recruitment, luminescence; scaled DMSO 0%, Melanotan II 100% | shares compounds with MC4R barr agon | activation, % at 8.9 µM | AID 602192 | actives 31% (n = 2,400);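 active = mean activation across replicates above the hit cutoff set in the earlier primary screen, cut at about 8% in these data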
MOR DOR agonist: counter-screen for MC4R agonists: agonists of mu-delta opioid heterodimer | shares compounds with MC4R barr agon | U2OS PathHunter beta-arrestin, beta-gal luminescence; percent of deltorphin B response, DMSO zero | activation, % at 9.2 µM | actives 5.8% (n = 2,400);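 active = mean activation across replicates exceeds the hit threshold derived in the earlier primary screen, cut at about 18% in these data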;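 also: 100% = deltorphin B at 0.9 µM final and 0% = DMSO alone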
An asterisk follows results filed as active; / = not tested or not shown.

no. | SMILES | MC4R barr agon | UUG fidelity | NALP1 yeast inh | MC4R antag cAMP
1 | C[C@H](CO)N1C[C@H](C)[C@H](CN(C)Cc2ccc3c(c2)OCO3)Oc2c(NS(=O)(=O)c3ccc(F)cc3)cccc2C1=O | / | 7.7 | / | /
2 | CCSc1nnc(-c2ccc(Cl)cc2)c2ccccc12 | 18.8* | -16.7 | 12.1 | 2.4
3 | CNC(=O)C[C@H]1CC[C@H]2[C@H](COc3ccc(NC(=O)c4ccc5c(c4)OCO5)cc3C(=O)N2C)O1 | / | 7.3 | / | /
4 | Cc1csc(NC(=O)c2cc(-c3ccccc3)nc3ccccc23)n1 | 12.3* | / | 30.1 | -1.9
5 | OC(CNC1CCCC1)COc1ccccc1Br (stereo not drawn) | 0.8 | -12.9 | 19.6 | 2.7
6 | Cc1ccccc1OCC(O)CNC1CCC(NCC(O)COc2ccccc2C)CC1 (stereo not drawn) | 11.0* | 8.1 | 9.3 | 6.1
7 | COCC(=O)Nc1ccc2c(c1)[C@@H]1C[C@@H](CC(=O)NCC3CC3)O[C@@H](CO)[C@@H]1O2 | / | -15.0 | / | /
8 | N#Cc1c(NC(=O)CSc2nnc(-c3ccccc3)o2)sc2c1CCCC2 | 23.0* | -11.0 | 33.3 | 4.2

no. | MOR DOR agonist | HDAC3 inhib | ALR inh | MC4R barr ag
1 | / | / | / | /
2 | 2.9 | -15.7 | -22.3 | -1.6
3 | / | / | / | /
4 | 7.5 | 7.1 | -1.1 | 3.5
5 | / | 7.7 | -3.0 | /
6 | 34.9* | -0.4 | -6.2 | 38.0*
7 | / | / | / | /
8 | 2.5 | 4.6 | 4.8 | 4.1

Other compounds:
no. | SMILES | MC4R barr agon | UUG fidelity | NALP1 yeast inh | MC4R antag cAMP
9 | CC1CCc2c(sc(NC(=O)CSc3nnc(-c4ccccc4)o3)c2C#N)C1 (stereo not drawn) | 2.4 | -8.5 | 20.4 | -5.2
10 | Cc1cc(OCC(=O)Nc2sc3c(c2C#N)CC(C)(C)NC3(C)C)c(C(C)C)cc1Cl | 13.6* | -7.1 | -1.8 | 3.8
11 | Cn1c(CNC(=O)c2ccc(Cl)cc2)nnc1SCC(=O)Nc1sc2c(c1C#N)CCCC2 | 17.0* | -21.6 | 8.9 | -0.6
12 | Cc1ccc(C(=O)NCc2nnc(SCC(=O)Nc3sc4c(c3C#N)CCCC4)n2C)cc1 | 0.2 | -13.2 | 4.7 | 3.2
13 | COc1ccccc1OCC(=O)Nc1sc2c(c1C(N)=O)CCC2 | -0.8 | 12.5 | / | -10.1
14 | Cc1ccc(C(C)C)c(OCC(=O)Nc2sc3c(c2C#N)CC(C)(C)NC3(C)C)c1 | 3.6 | 4.7 | 27.2 | 1.4
15 | Cc1ccccc1OCC(=O)Nc1sc2c(c1C#N)CCC2 | 16.7* | -15.6 | 47.7 | 17.4
16 | COCC(=O)Nc1ccc2c(c1)OC[C@H](C)N(CC1CCCCC1)C[C@H](C)[C@H](OC)CN(C)C2=O | / | 10.3 | / | /

no. | MOR DOR agonist | HDAC3 inhib | ALR inh | MC4R barr ag
9 | / | 0.5 | / | /
10 | 7.5 | -4.1 | -8.4 | 8.5*
11 | 4.1 | -9.5 | 0.9 | 1.1
12 | / | 1.7 | 0.8 | /
13 | / | -0.8 | 32.2 | /
14 | / | 1.6 | 1.3 | /
15 | 3.5 | 3.3 | -4.9 | 1.6
16 | / | / | / | /

(more compounds)
no. | SMILES | MC4R barr agon | UUG fidelity | NALP1 yeast inh | MC4R antag cAMP
17 | Cc1noc(C)c1NC(=O)Nc1ccc2c(c1)C(=O)N([C@@H](C)CO)C[C@@H](C)[C@@H](CN(C)C(=O)Nc1ccc(C(F)(F)F)cc1)O2 | / | -1.8 | / | /
18 | CCOc1ccccc1C(=O)NCC(=O)NCCSc1ccc(Br)cc1 | 14.6* | -17.9 | / | -1.6
19 | CCOc1ccccc1C(=O)NCCNC(=O)c1ccccc1OCC | -0.6 | / | / | 2.2
20 | COc1cc(-c2cnc3c(NC=O)cc(-c4ccccc4)cn23)cc(OC)c1OC | 5.4 | -0.8 | / | -53.5
21 | COc1cc(-c2cc(NC=O)c3ncc(-c4ccc(C(C)=O)cc4)n3c2)cc(OC)c1OC | 25.9* | -2.0 | / | -0.7
22 | COc1ccc(-c2cc(NC=O)c3ncc(-c4ccc(C(C)=O)cc4)n3c2)cc1OC | 11.2* | -13.5 | / | 7.6
23 | COc1cc(-c2cnc3c(NC=O)cc(-c4ccc(C)cc4)cn23)cc(OC)c1OC | -0.4 | -13.5 | / | -34.2
24 | COc1ccc(-c2cnc3c(NC=O)cc(-c4ccc(C(=O)N5CCOCC5)cc4)cn23)cc1OC | 6.0 | -13.6 | / | -15.0

no. | MOR DOR agonist | HDAC3 inhib | ALR inh | MC4R barr ag
17 | / | / | / | /
18 | 5.0 | / | / | 1.8
19 | / | 4.0 | -0.8 | /
20 | / | / | / | /
21 | 2.1 | / | / | 18.5*
22 | 3.3 | / | / | 9.0*
23 | / | / | / | /
24 | / | / | / | /

Next section.
no. | SMILES | MC4R barr agon | UUG fidelity | NALP1 yeast inh | MC4R antag cAMP
25 | COc1cc(-c2cc(NC=O)c3ncc(-c4ccccc4)n3c2)cc(OC)c1OC | 12.9* | 1.1 | / | -25.4
26 | COc1ccccc1-c1ccc([C@H]2[C@@H](CO)N(C(=O)C3CCOCC3)[C@H]2C#N)cc1 | / | 7.5 | / | /
27 | CO[C@H]1CN(C)C(=O)c2cc(NC(=O)NC3CCCCC3)ccc2OC[C@H](C)N(C)C[C@@H]1C | / | -1.7 | / | /
28 | COc1ccc(S(=O)(=O)N(C)C[C@@H]2Oc3ccc(NS(=O)(=O)c4cccs4)cc3C(=O)N([C@@H](C)CO)C[C@H]2C)cc1 | / | -4.0 | / | /
29 | C[C@H]1CN([C@@H](C)CO)C(=O)c2cc(NC(=O)Cc3cn(C)c4ccccc34)ccc2O[C@H]1CN(C)S(=O)(=O)c1ccccc1 | / | -10.4 | / | /
30 | CCCc1cc(=O)oc2cc(OCC(=O)NCCc3c[nH]c4ccccc34)ccc12 | 16.8* | -19.5 | 0.0 | 4.3
31 | C[C@@H]1CN([C@@H](C)CO)C(=O)c2cc(/C=C/c3ccccc3)cnc2O[C@@H]1CN(C)C(=O)c1ccc(F)cc1 | / | 11.9 | / | /
32 | COc1ccc(CCN2C(=O)C(Oc3ccccc3)C2c2ccc3c(c2)OCO3)cc1 (stereo not drawn) | 18.1* | -27.3 | 18.2 | 6.6

no. | MOR DOR agonist | HDAC3 inhib | ALR inh | MC4R barr ag
25 | 2.2 | / | / | 25.2*
26 | / | / | / | /
27 | / | / | / | /
28 | / | / | / | /
29 | / | / | / | /
30 | 25.4* | 3.4 | -3.1 | 13.6*
31 | / | / | / | /
32 | 2.9 | -11.0 | -2.1 | -0.1

The results go on.
no. | SMILES | MC4R barr agon | UUG fidelity | NALP1 yeast inh | MC4R antag cAMP
33 | O=[N+]([O-])c1ccc(/C=C/c2ccc3cccc([N+](=O)[O-])c3n2)cc1 | 10.0* | / | 4.2 | 4.4
34 | O=[N+]([O-])c1cccc2ccc(/C=C/c3ccc(F)cc3)nc12 | 7.2 | -0.6 | 25.3 | -1.5
35 | CCn1c2ccccc2c2cc(NC(=O)COC(=O)c3ccccc3F)ccc21 | 9.8* | -20.0 | 28.7 | 11.7
36 | CCn1c2ccccc2c2cc(NC(=O)COc3ccccc3)ccc21 | 25.9* | / | 26.3 | -6.6
37 | O=C(COc1ccccc1)Nc1ccc(OC(F)(F)C(F)F)c(NC(=O)COc2ccccc2)c1 | 17.2* | -4.5 | -0.4 | -0.3
38 | CCn1c2ccccc2c2cc(NC(=O)COC(=O)c3ccccc3O)ccc21 | 4.5 | / | 9.0 | 7.1
39 | Cc1ccc2nc(SCC(=O)c3c[nH]c4ccccc34)[nH]c2c1 | 11.8* | / | 7.2 | -2.4
40 | C[C@@H]1CCCCO[C@H](CN(C)S(=O)(=O)c2cn(C)cn2)[C@@H](C)CN([C@@H](C)CO)C(=O)c2cc(NC(=O)CCCN(C)C)ccc2O1 | / | -21.7 | / | /
41 | O=C(NCc1ccc(-c2csnn2)cc1)c1cc(Cl)cc(Cl)c1 | 12.5* | / | 11.1 | 2.4
42 | O=C(NCc1ccc(-c2csnn2)cc1)c1cccs1 | 1.4 | / | 14.1 | 10.7

no. | MOR DOR agonist | HDAC3 inhib | ALR inh | MC4R barr ag
33 | 7.1 | -0.8 | / | 4.2
34 | / | -5.6 | -15.8 | /
35 | 3.9 | / | / | 3.2
36 | 3.4 | 6.3 | / | 2.2
37 | 11.7 | -0.1 | -0.2 | 9.9*
38 | / | -2.0 | 1.7 | /
39 | 3.9 | -2.9 | -33.4 | 5.3
40 | / | / | / | /
41 | 4.4 | 1.9 | 4.2 | 2.0
42 | / | 0.8 | -0.1 | /
